Test system: patients with SAH after aneurysmal rupture
Experiment: Spasm (CVS) related brain infarcts on CCT in SAH patients, Molsidomine in addition to standard therapy vs standard Nimodipine therapy
Type: in vivo, human
Experimental: CCT at the beginning and after treatment were analyzed independently by two experienced neuroradiologists and were scanned for development of delayed brain infarction. At least three months after discharge a modified NIH-SS and a modified Rankin Scale (mRS) for clinical follow up was assessed. 83 patients admitted to the Intensive Care Unit of the University Hospital of Munster, Germany, after spontaneous aneurysmal SAH were registered in an observational study. Seven patients died in the first 124 hours after admission, without detected CVS probably related to malignant brain edema and severity of initial SAH. These patients were excluded from further evaluation. […] Nimodipine is a calcium channel antagonist and is the most rigorously studied and only drug approved by the US Food and Drug Administration (FDA) for use in the treatment of vasospasm (71). Due to evidence for CVS (TCD, clinical) all patients received diagnostic DSA and a rescue therapy with local, intra-arterial Nimodipine infusions over 20 minutes. […] Out of 76 individuals 27 patients received Molsidomine i.v. in an individually up-titrated dosage with a target quantity of 3.5-10 mg/h dependent on systemic circulation reactions. […] Within 24 h after admission to the ICU patients were treated with coil embolization and/or clipping. […] Appearance of CVS. Male and female patients with an age of 18 years and written informed consent for the additional application of Molsidomine. Spontaneous SAH after aneurysmal rupture and a clinical stage of Hunt and Hess grade Ito V. Exclusion criteria for patients were: No detected CVS. […] CCT and DSA images were independently reported by two experienced neuroradiologists for infarction and vasospasm. CVS related infarcts were diagnosed if hypodense lesions could be detected 72 h or later after therapeutic intervention or operation in comparison to the 24 h control CCT scan and being accompanied by clinical deterioration due to CVS or positive Doppler ultrasound or CVS in DSA.

COCCOC(=O)C1=C(C)NC(C)=C(C(=O)OC(C)C)C1c1cccc([N+](=O)[O-])c1 (stereo not shown) [Nimodipine, 1,4-dihydro-2,6-dimethyl-4-(3-nitrophenyl)-3,5-pyridinedicarboxylic acid 2-methoxyethyl 1-methylethyl ester]
Spasmus related infarcts, Infarction (number of patients) (Hunt & Hess grade III°): 4
Spasmus related infarcts, Infarction (number of patients) (Hunt & Hess grade II°): 1
Spasmus related infarcts, Infarction (number of patients) (Hunt & Hess grade IV°): 14
Spasmus related infarcts, Infarction (number of patients) (Hunt & Hess grade I°): 4
Spasmus related infarcts, Infarction (number of patients) (Hunt & Hess grade V°): 2
patients who developed CVS associated infarcts (share of group) (all Hunt & Hess grades): 51%
patients who developed CVS associated infarcts (number) (all Hunt & Hess grades, groups of 49 (Nimodipine) and 27 (Molsidomine)): 25

— patent publication US20130252959A1, “NITRIC OXIDE DONORS IN THERAPY OF NITRIC OXIDE DEFICIENCY-INDUCED DISTURBANCES OF CEREBRAL MICROCIRCULATION” (West-Falische Wilhelms-Universitat Munster, priority 2010, published 2013)
